From patent US5547975A, “Benzopyranopyrazolyl derivatives for the treatment of inflammation” (priority 1994, dated 1996)

System: carrageenan foot pad edema (rat paw edema)
Experiment: Rat Carrageenan Foot Pad Edema Test
Format: in vivo, rat (male Sprague-Dawley)
Conditions: oral, @ 30 mg/ka body weight, 3 hours after carrageenan injection

SMILES: COc1ccc2c(c1F)CSc1c(C(F)(F)F)nn(-c3ccc(S(C)(=O)=O)cc3)c1-2 [Example 2, 1,5-Dihydro-6-fluoro-7-methoxy-1-[(4-methylsulfonyl)phenyl]-3-(trifluoromethyl)-[2]benzothiopyrano[4,3-c]pyrazole]
- RAT PAW EDEMA % Inhibition: 28%
